Consider one sequence from ChEMBL document CHEMBL1781953, “Synthesis and antimycobacterial activity of 5-formylaminopyrimidines; analogs of antibacterial purines” (Bioorg Med Chem Lett, 2009).

For the experiment, the system named is Escherichia coli. In words: Antibacterial activity against Escherichia coli. In kind it is functional.

One may read the MIC as the lowest concentration that inhibits growth of the organism. Take GENTAMICIN: the MIC stood at 0.5 µg/mL.
